The target in the test is Serine/threonine-protein kinase pim-3 (Homo sapiens, UniProt Q86V86).

By Ki is commonly meant a measure of affinity in units of concentration, obtained from inhibition or displacement. A low value points to a stronger hold on the target. As to `Nc1ccc(C2CCCCC2)nc1C(=O)Nc1cnccc1[C@@H]1CCC[C@H](N)C1`, the inhibitory constant (Ki) came out at 0.014 µM.

The record behind these values is ChEMBL document CHEMBL3745712, “Identification of N-(4-((1R,3S,5S)-3-Amino-5-methylcyclohexyl)pyridin-3-yl)-6-(2,6-difluorophenyl)-5-fluoropicolinamide (PIM447), a Potent and Selective Proviral Insertion Site of Moloney Murine Leukemia (PIM) 1, 2, and 3 Kinase Inhibitor in Clinical Trials for Hematological Malignancies” (J Med Chem, 2015).
